From US7728040B1, “Polyamine conjugates as selective NMDA inhibitors and anti-cancer drugs” (University of Central Florids Research Foundation, Inc., priority 2002, dated 2010)
Counter-ions that a name gives are not always drawn.

System: B16 (melanoma) cells
Details: mouse

| SMILES | times more cytotoxic to melanoma B16 cells than normal melanocytes Mel-A |
| --- | --- |
| Cl.Cl.Cl.NCCCCN(CCCCN)Cc1c2ccccc2cc2ccccc12 [Compound 8e, N-(4-Amino-butyl)-N-anthracen-9-ylmethyl-butane-1,4-diamine, trihydrochloride] | 7.5-10.5 fold |
| CCCCNCc1c2ccccc2cc2ccccc12 [Compound 35, N^1-Anthracen-9-ylmethyl-butylamine Monohydrochloride] | 0.7-2.3 fold |
